Measurements as given in PMC4414788 (Chemico-biological interactions, 2015).

Molecular target: T1, ALDH3A1 (Homo sapiens, UniProt P30838)
T1 sequence (P30838 1-453): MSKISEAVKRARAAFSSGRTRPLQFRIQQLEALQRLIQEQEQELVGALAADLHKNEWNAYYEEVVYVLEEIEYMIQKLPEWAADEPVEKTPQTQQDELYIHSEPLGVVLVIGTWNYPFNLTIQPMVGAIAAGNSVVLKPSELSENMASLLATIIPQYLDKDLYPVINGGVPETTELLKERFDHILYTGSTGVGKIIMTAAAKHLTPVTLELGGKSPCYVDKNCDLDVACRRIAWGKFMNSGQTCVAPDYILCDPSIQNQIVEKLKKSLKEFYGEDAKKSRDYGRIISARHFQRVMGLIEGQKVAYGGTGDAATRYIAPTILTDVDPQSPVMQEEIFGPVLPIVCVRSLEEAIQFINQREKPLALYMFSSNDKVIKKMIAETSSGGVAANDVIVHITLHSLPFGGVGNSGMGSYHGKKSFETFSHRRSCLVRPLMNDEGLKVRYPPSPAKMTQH
Assay: biochemical
Details: read-out: % of control remaining

COC(=O)C(C)Oc1ccc2c(C)cc(=O)oc2c1 (stereo not shown) [2BS4, methyl-2-[(4-methyl-2-oxo-2H-chromen-7-yl)oxy]propanoate]
remaining activity at 10 µM: 94.5%
